# Apparent affinities of Ab-14 variants for a coronavirus HR2 peptide

The measurements come from Li et al. 2023 (doi:10.1038/s41467-023-39022-2) through the FLAb antibody collection.

The target is the same throughout: PDVDLGDISGINAS, from the HR2 region of SARS-CoV-2 spike.

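The starting antibody came from a phage panning campaign against this peptide. This is the validation round: designs drawn from the data on random variants, tested in the same kind of assay. Several design methods are mixed in this list. The assay is AlphaSeq: two haploid yeast populations carry antibody and antigen on their surface. After mating in shaken culture at 30 °C for 16 h, diploids were selected and their barcode pairs sequenced. A regression on co-assayed BCL2-family reference pairs converts the normalised counts of each replicate to an apparent Kd. The assay was run in six technical replicates.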

Parent: Ab-14, a human scFv built as VH, three GGGGS repeats, VL. Only the CDRs of the light chain vary.
VH: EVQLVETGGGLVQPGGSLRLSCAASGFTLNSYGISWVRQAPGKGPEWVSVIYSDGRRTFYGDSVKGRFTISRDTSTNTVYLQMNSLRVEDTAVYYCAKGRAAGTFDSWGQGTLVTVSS
VL: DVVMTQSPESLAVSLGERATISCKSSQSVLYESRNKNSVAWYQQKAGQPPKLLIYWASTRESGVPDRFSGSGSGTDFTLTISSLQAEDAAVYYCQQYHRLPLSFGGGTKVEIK

The parent's light chain CDRs are KSSQSVLYESRNKNSVA, WASTRES, QQYHRLPLS; each variant's own CDRs replace them letter for letter. Each Kd is an estimate from the mating assay, the geometric mean of the replicates in which the pair was seen; lower is stronger. A pair that was not seen in any replicate is written "nd"; this usually means weak binding, but a binder can also be missed. Of ten entries with the parent sequence, four were seen in most replicates (averages 2.2 nM to 240 nM), three in one and three in none, so single entries are noisy.

Kd	detected	signal with controls	CDR-L1	CDR-L2	CDR-L3
1.6 nM	6 of 6	3 of 18	HQSQSVGQEERQKNSVA	AASTREV	QQYHRLPLS
3.7 nM	6 of 6	0 of 18	KFSQSFLYESRNKNSVA	GASTRES	QAYHRLPLS
760 pM	6 of 6	0 of 18	KSLQQQEYESRNKNSVA	HASTRED	QQYHRLPLS
nd	0 of 6	0 of 18	KGSQSVLRESRNKNSVA	WASTRES	DQYHRMPLS
53 nM	5 of 6	0 of 18	HMNTADVGVSDHYNSVA	EQRAAGI	QQYFRLPLS
nd	0 of 6	0 of 18	KSSQSVLMESRNKNSVA	WASTRED	QQYHRLFLS
6.9 nM	6 of 6	1 of 18	NLKEMEGDNQTKHKNIA	SVDQTMT	QQYFRLPLA
780 pM	6 of 6	1 of 18	KVSMLHDYESRNKNSVA	EASTREQ	QDYHRLPLS
nd	0 of 6	0 of 18	KSSQSVRYESRNKNSVA	MASTREF	YQVHRLPLS
23 nM	6 of 6	1 of 18	HFSVETMEFMGPNKNIA	EVSTTML	QQYARLPFM
230 nM	3 of 6	0 of 18	IVSQLMLWGKSAKNSIA	EAVTRLN	QQYDRLPLY
2.3 nM	6 of 6	1 of 18	HLADTVMQGSYYRNSVA	QESTRAD	QQYHHLPLS
6.4 nM	6 of 6	0 of 18	TISQMTTLFSQTINNVA	EVSTREQ	QQYDRLPLI
4.1 nM	6 of 6	0 of 18	HMSALTLMGSRQRNSVA	QMTTREN	QQYDRLPLV
14 nM	6 of 6	0 of 18	SLRHMILDWDNKMQNIA	DVHMREQ	QQYFRLPIV
7.3 nM	6 of 6	2 of 18	KVHQSQLYESRQINSVA	NASQRCD	QQYHRLPLS
17 nM	6 of 6	2 of 18	KISQMVRVGSTHSNSIA	EEATRAK	QQYHRLPLF
5.8 nM	6 of 6	3 of 18	LISGVWDYGSRNYNSVA	QTSTRES	QQYDRLPLI
500 pM	6 of 6	4 of 18	KLPQSYLYESRNKNSVA	NASQRES	QQYHRLPLS
3.4 nM	6 of 6	0 of 18	KSSWSVEYESNNKNSVA	HASTRED	QQYHRLPLS
15 nM	6 of 6	2 of 18	KLRNSTLYESRQKNSVA	WASTRES	QQYHRLPLS
19 nM	6 of 6	0 of 18	KVSQAQDYESRNKNSVA	QASQREQ	QQYHRLPLY
120 nM	6 of 6	0 of 18	KSSQSCLDESHNKNSVA	WASTRES	QQYHRLPLS
5.9 nM	6 of 6	1 of 18	QLGDEQVSETLMANNIA	HSDFRAD	QQYFRLPLL
4.6 nM	6 of 6	1 of 18	KSSQVVLYESRNKNSVA	GASTRES	QQYHRLPLS
6.6 nM	1 of 6	0 of 18	KVEEEGDVIARIDNSVA	EMSMVLD	QQYHRLPLA
810 pM	6 of 6	0 of 18	KSSQSVLYESRNKNSVA	MASTREN	QQYARLPLS
770 pM	6 of 6	1 of 18	KMEQSVLYESRNKNSVA	NASQRES	QQYHRLPLS
88 nM	4 of 6	1 of 18	KSSQSVLEESRNKNNVA	WASTRES	QQYHRLPLS
180 nM	6 of 6	1 of 18	SLYEVSEELSGKKHSVA	DNSTRGD	QQYFRLPLD
3.6 nM	6 of 6	3 of 18	KLRQVTGYEEYLRNSVA	QMSTRAE	QDYHRLPLS
8.9 nM	6 of 6	2 of 18	MISDLTMYGLRNVNSVA	DLSTRGS	QQYDRLPLS
26 nM	6 of 6	2 of 18	HLGYATMLESSVRNSVA	NNSTREE	QQYDRLPLS
nd	0 of 6	0 of 18	KSLQSVLYESRNKNSVA	WASTRWS	QQYRELPLS
130 nM	6 of 6	2 of 18	KSSQSVLYEMGNKNSVA	WASTRES	QQYHRLPLS
93 nM	6 of 6	0 of 18	VLQQSVLPESRNKNSVA	MASTRLS	QQYHRLPLS
2.7 nM	6 of 6	1 of 18	LIKGMVEGQLYKQNAIA	NAEERDR	QQYNHLPLS
560 pM	6 of 6	0 of 18	KLSQSVLYESRNKNSVA	QASTREQ	QQYHRLPLS
830 nM	5 of 6	0 of 18	KLTQYVGGESRNKSSLA	DNSTRES	QQYHRLPLS
610 pM	6 of 6	0 of 18	ALSMSEWMESRNKNSVA	SANTREE	QQYHRLPLS
4.3 nM	6 of 6	1 of 18	KSQQSVLYEPRGCNSVA	AASTRES	QQYHRLPLS
16 nM	1 of 6	0 of 18	MLQIEPNGYMGMRSNVA	DGVDVRM	QQYARLPLM
2.8 nM	6 of 6	0 of 18	KVQQSVPYESRNKNSVA	NASTRES	QQYHRLPLS
420 pM	6 of 6	0 of 18	HSSPSWLYDSRNKNHVA	DATTRES	QQYHRLPLT
54 nM	3 of 6	1 of 18	NFSQMVSSGMTLRNSVA	HASTRFN	QQYHRLPLI
750 pM	6 of 6	0 of 18	LMSQSELLESRNHNSVA	DASTRMD	QQYHRLPLS
1.0 nM	6 of 6	1 of 18	KLSQSTLYDSQNKNSVA	HASTRES	QQYKRLPLS
nd	0 of 6	0 of 18	SLSMFMDNYNQLYDSVA	DTANIDI	QQYDRLPLS
380 nM	1 of 6	0 of 18	KSSQSVLYESRNKNSVA	YASARES	QQYARLPLS
70 nM	1 of 6	0 of 18	IVSQLMLWGYHAKNSIA	EAEQRLN	QQYDRLPLF
110 nM	2 of 6	1 of 18	QLDQAYRVGGLWKQSIA	HGSMRVQ	QCYVRLPLS
nd	0 of 6	1 of 18	KSSQSVLKEYRNKNSVA	WASTRES	QQYHRLPLS
2.0 nM	6 of 6	0 of 18	KLMQSVLYESRNKNSVA	HASLRED	QQYHRLPLW
3.4 nM	6 of 6	0 of 18	KISQMVKVGMTHGNSIA	EEATRAD	QQYHRLPLA
300 nM	6 of 6	1 of 18	HISQSVGMTSREKNSVA	ENSTRED	QQYDRLPLS
5.9 nM	6 of 6	0 of 18	IISQSVLGGYHNSNSVA	QTSERGQ	QQYDRLPLS
650 pM	6 of 6	1 of 18	KLPQSTLYESRNKNSVA	SASTRES	QQYHRLPLS
22 nM	6 of 6	0 of 18	HITYGMMVHGRHSKSIA	QAEERAK	QQYDRLPLI
14 nM	6 of 6	2 of 18	KQSISGPYEDRNFNSVA	HASQRIS	QQYHRLPLS
520 pM	6 of 6	1 of 18	KVSPSQEYESRNKQSVA	HASQREE	QQYHRLPLS
nd	0 of 6	0 of 18	SLSQSVLYESRNKNSVA	HASTRES	QQYHRLELS
28 nM	1 of 6	0 of 18	KSSQSVLGESRNKNSVA	WASTRES	QQYHRLPLS
1.3 nM	6 of 6	1 of 18	KSSQSVLYESRNKNSVA	QASTLES	QQYHELPLS
6.4 nM	6 of 6	0 of 18	WSSQNVLYESRNKNSVA	EASTRES	QQYHRLPLS
280 pM	6 of 6	0 of 18	KLSQSQLYESRNKNSVA	DASQRES	QQYHRLPLS

9 of these entries, quoted again:

{"CDR-L1": "KVEEEGDVIARIDNSVA", "CDR-L2": "EMSMVLD", "CDR-L3": "QQYHRLPLA", "Kd": "6.6 nM", "detected": "1 of 6", "signal with controls": "0 of 18"}
{"CDR-L1": "KVHQSQLYESRQINSVA", "CDR-L2": "NASQRCD", "CDR-L3": "QQYHRLPLS", "Kd": "7.3 nM", "detected": "6 of 6", "signal with controls": "2 of 18"}
{"CDR-L1": "HSSPSWLYDSRNKNHVA", "CDR-L2": "DATTRES", "CDR-L3": "QQYHRLPLT", "Kd": "420 pM", "detected": "6 of 6", "signal with controls": "0 of 18"}
{"CDR-L1": "QLGDEQVSETLMANNIA", "CDR-L2": "HSDFRAD", "CDR-L3": "QQYFRLPLL", "Kd": "5.9 nM", "detected": "6 of 6", "signal with controls": "1 of 18"}
{"CDR-L1": "IVSQLMLWGYHAKNSIA", "CDR-L2": "EAEQRLN", "CDR-L3": "QQYDRLPLF", "Kd": "70 nM", "detected": "1 of 6", "signal with controls": "0 of 18"}
{"CDR-L1": "KLRQVTGYEEYLRNSVA", "CDR-L2": "QMSTRAE", "CDR-L3": "QDYHRLPLS", "Kd": "3.6 nM", "detected": "6 of 6", "signal with controls": "3 of 18"}
{"CDR-L1": "SLYEVSEELSGKKHSVA", "CDR-L2": "DNSTRGD", "CDR-L3": "QQYFRLPLD", "Kd": "180 nM", "detected": "6 of 6", "signal with controls": "1 of 18"}
{"CDR-L1": "LIKGMVEGQLYKQNAIA", "CDR-L2": "NAEERDR", "CDR-L3": "QQYNHLPLS", "Kd": "2.7 nM", "detected": "6 of 6", "signal with controls": "1 of 18"}
{"CDR-L1": "KSSQSVLMESRNKNSVA", "CDR-L2": "WASTRED", "CDR-L3": "QQYHRLFLS", "Kd": "nd", "detected": "0 of 6", "signal with controls": "0 of 18"}

Three control strains display no target. For all light chain designs, 4% of the pairings with them gave a signal, with a median of 430 nM and one signal in twenty below 38 nM, so weak values seen in few replicates may be background. For each scFv, signals with the empty controls are counted beside the result. In the paper, a design with two or fewer of six values counts as a poor binder. The range of this assay differs from that of the first round, and the authors advise against merging the two.